# Measured affinities in a library of Ab-95 light chain variants

The target is the same throughout: PDVDLGDISGINAS, from the HR2 region of SARS-CoV-2 spike.

Parent: Ab-95, a human scFv built as VH, the linker GGGGSGGGGSGGGGS, VL. Only the CDRs of the light chain vary.
VH: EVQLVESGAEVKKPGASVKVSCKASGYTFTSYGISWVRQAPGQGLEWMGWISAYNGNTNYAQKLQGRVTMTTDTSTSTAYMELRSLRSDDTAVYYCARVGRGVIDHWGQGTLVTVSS
VL: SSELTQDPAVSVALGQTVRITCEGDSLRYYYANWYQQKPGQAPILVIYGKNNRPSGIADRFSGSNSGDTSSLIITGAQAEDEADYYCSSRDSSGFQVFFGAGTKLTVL

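Phage display of a naive human antibody library on the peptide gave the parent. The library (AAYL52) carries one to three amino acid substitutions per variant, with no insertions or deletions. The scFvs were displayed on barcoded MATa yeast, the peptide on MATalpha yeast. After mating in shaken culture at 30 °C for 16 h, diploids were selected and their barcode pairs sequenced. Each replicate has its own calibration line, from reference interactions of the BCL2 family. Each pool was mated in three replicate cultures.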

Changes read parent residue, position, new residue, counted from the first residue of the VL shown. Scale: log10 of Kd in nM, estimated from mating counts; low values are strong binders. An entry "ND" has no value in the source: the pair was not observed among the diploids in that replicate. This suggests poor binding but is not conclusive.

changes,log10 Kd (nM) by replicate,empty controls
R53L Q96M,3.39 2.74 2.39,2/9 (4.61)
S88P S89H,3.82 ND 4.28,3/9 (4.02)
S26I R28M G94C,ND ND 2.88,2/9 (3.89)
E23A D91Y F95M,3.61 4.11 3.18,4/9 (4.01)
R28F G49T S89E,ND ND ND,0/9
G49T,ND ND ND,1/9 (4.04)
N33I K50L Q96L,3.62 ND 4.03,1/9 (3.97)
D25Q S89M S93T,4.53 3.63 3.44,1/9 (3.74)
E23W G24L S93D,3.69 3.70 2.44,1/9 (5.20)
N51G S55L Q96R,2.89 2.53 2.09,1/9 (3.42)
G24K Y31G A32Q,2.81 2.73 3.00,2/9 (3.92)
D25G N52H S55L,3.13 2.88 3.58,3/9 (3.63)
S26Q N51Q Q96N,ND ND 4.22,2/9 (4.28)
G24D D25W F95C,4.44 ND ND,2/9 (4.57)
L27K R28H S55D,3.52 ND 4.10,3/9 (3.11)
Y29V A32Q,4.06 ND ND,2/9 (4.35)
G49R S55I Q96C,5.59 ND 3.81,2/9 (3.84)
L27M N33C S55M,5.35 4.56 ND,7/9 (4.09)
E23L G24R R90G,ND ND ND,3/9 (3.28)
D25K G94L,2.90 2.81 3.73,3/9 (4.10)
N52E S89Q,2.13 2.04 2.22,0/9
G24T R90W D91W,3.77 2.93 3.22,7/9 (3.67)
G49C V97K F98P,3.12 2.99 3.51,1/9 (3.48)
G24Q Y31G G49Q,4.94 ND ND,5/9 (3.98)
R28H N33H S93W,ND ND ND,2/9 (3.96)
Y31T K50N S89T,1.91 1.87 1.23,1/9 (3.73)
E23I G49A F98I,ND ND ND,1/9 (3.57)
E23T G49L S92A,4.76 4.83 3.28,1/9 (5.47)
D25P L27A V97S,3.68 3.17 ND,5/9 (3.84)
R28K D91Y,3.59 ND ND,3/9 (3.90)
E23L S26E G49V,4.01 ND 4.54,4/9 (4.41)
E23P D25L Q96N,ND ND ND,0/9
S26P K50V S92C,ND ND 4.19,2/9 (3.95)

The opening 5 entries, copied out:

changes,log10 Kd (nM) by replicate,empty controls
R53L Q96M,3.39 2.74 2.39,2/9 (4.61)
S88P S89H,3.82 ND 4.28,3/9 (4.02)
S26I R28M G94C,ND ND 2.88,2/9 (3.89)
E23A D91Y F95M,3.61 4.11 3.18,4/9 (4.01)
R28F G49T S89E,ND ND ND,0/9

In this assay the parent's reference entry averaged 2.31; its copy inside this library read 2.25. Empty control strains, which show no peptide, gave a signal in 28% of pairings with library AAYL52; the median was 3.91 and 95% of these signals were weaker than 2.90. No background was subtracted. The control count says in how many pairings with the empty strains this scFv gave a signal, with their mean in brackets.

Data: MIT Lincoln Laboratory AlphaSeq set, Engelhart et al. 2022, doi:10.1038/s41597-022-01779-4, as distributed in FLAb.